Assay results as given in patent US20220218680A1, “TREATMENTS OF HEREDITARY ANGIOEDEMA” (KALVISTA PHARMACEUTICALS LIMITED, priority 2019, published 2022).

Sequences of proteins named here, by UniProt entry; tags and fusion partners are left off. Residues count along the entry.
UniProt P03952, 20-390 partner limits assumed: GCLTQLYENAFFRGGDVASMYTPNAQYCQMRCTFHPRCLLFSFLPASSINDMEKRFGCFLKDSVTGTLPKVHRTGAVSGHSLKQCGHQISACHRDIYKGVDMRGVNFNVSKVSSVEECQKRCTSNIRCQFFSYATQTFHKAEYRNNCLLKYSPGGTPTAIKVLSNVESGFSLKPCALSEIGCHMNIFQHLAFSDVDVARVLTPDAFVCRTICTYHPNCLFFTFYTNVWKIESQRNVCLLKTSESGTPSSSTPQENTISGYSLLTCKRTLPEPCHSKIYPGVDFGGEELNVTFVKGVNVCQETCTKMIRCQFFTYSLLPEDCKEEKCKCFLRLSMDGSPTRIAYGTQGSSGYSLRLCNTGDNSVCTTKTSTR
UniProt P03952, 391-638 limits assumed: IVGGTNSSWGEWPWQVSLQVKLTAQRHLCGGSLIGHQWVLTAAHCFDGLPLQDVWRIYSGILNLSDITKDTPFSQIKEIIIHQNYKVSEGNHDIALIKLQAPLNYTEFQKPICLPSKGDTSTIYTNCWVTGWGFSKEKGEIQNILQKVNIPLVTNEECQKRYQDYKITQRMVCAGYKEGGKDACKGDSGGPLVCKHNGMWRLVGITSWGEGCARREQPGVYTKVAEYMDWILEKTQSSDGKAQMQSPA

Biological target: T1, Plasma Kallikrein (Homo sapiens, UniProt P03952)
T1 construct: PD measurements were determined in dextran sulfate (DXS) stimulated undiluted plasma using a fluorogenic enzyme assay; from tissue; host or cells: undiluted plasma of healthy male volunteers after oral dosing, stimulated ex vivo with dextran sulfate
Assay: Phase 1 SAD / food effect: ex vivo PKa catalytic activity in DXS-stimulated undiluted plasma
Conditions: 600 mg tablet, fed state, by 30 minutes
Procedure: PD measurements were determined in dextran sulfate (DXS) stimulated undiluted plasma using a fluorogenic enzyme assay and capillary based HK cleavage immunoassay.
The time until appearance of detectable amidolytic enzyme activity in DXS-stimulated plasma (lag time) was calculated from the catalytic activity assay. The detection sensitivity of the rate of catalytic activity in plasma based on using a Spark (Tecan) fluorimeter is a fluorescence increase to reach 1ΔF unit/sec.

COCc1nn(Cc2ccc(Cn3ccccc3=O)cc2)cc1C(=O)NCc1nccc(OC)c1F [compound of Formula A, N-[(3-fluoro-4-methoxypyridin-2-yl)methyl]-3-(methoxymethyl)-1-({4-[(2-oxopyridin-1-yl)methyl]phenyl}methyl)pyrazole-4-carboxamide]
inhibition at 600 mg: > 90%
